These results are taken from publication PMC4829233, “Identification of Novel Chemical Scaffolds Inhibiting Trypanothione Synthetase from Pathogenic Trypanosomatids” (PLoS Neglected Tropical Diseases, 2016).

The test system of this data set is N[C@@H](CCC(=O)N[C@@H](CS)C(=O)NCC(=O)O)C(=O)O. In words: purified protein, by the assay type. The following applies: other: LDH/PK assay, saturating co-substrates; pH 7.4.

Where “and” joins values, the source holds several entries; their conditions need not be identical. Equal entries are not always repeated.

For orientation: Km means the substrate concentration at which the rate is half of its maximum. Take “T. cruzi trypanothione synthetase (TcTryS) (Trypanosoma cruzi strain CL Brener)”: the Km is 123 ± 23 µM and 140 ± 13 µM.
